# Earlier results in US20130274692A1, “SUBCONJUCTIVAL IMPLANT FOR POSTERIOR SEGMENT DRUG DELIVERY” (priority 2010, published 2013).
# Settings: in water, 20 C, measured value of Molokhia et al, cited from earlier work
substance,measurement,setting,value
bovine serum albumin [BSA],Diff Coeff,,6.1E−07 cm^2/s
same,Diff Coeff,listed as bovine serum albumin,6.1 e-7 cm^2/s

# Read-outs that look alike come from different tables or passages of the source.
